This test has as its target T1, Dihydrofolate reductase (Mycobacterium avium, UniProt O30463).
T1 sequence (O30463 whole entry): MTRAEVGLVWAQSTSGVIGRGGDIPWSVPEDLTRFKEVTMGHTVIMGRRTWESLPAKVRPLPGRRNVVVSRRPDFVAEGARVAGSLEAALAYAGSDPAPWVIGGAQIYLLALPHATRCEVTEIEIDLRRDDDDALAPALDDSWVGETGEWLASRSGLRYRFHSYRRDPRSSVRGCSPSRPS
Description: Antimycobacterial activity against Mycobacterium avium complex dihydrofolate reductase (MAC DHFR).

The source of these data is ChEMBL document CHEMBL1135401, “Pharmacophore mapping of a series of 2,4-diamino-5-deazapteridine inhibitors of Mycobacterium avium complex dihydrofolate reductase” (J Med Chem, 2002).

Molecules are shown by their SMILES.

A word on the IC50: it is the concentration needed to halve the response being measured. A high value points to a need for much substance. `COCc1c(CNc2ccc(Cl)cc2)cnc2nc(N)nc(N)c12` yielded a half-maximal inhibitory concentration (IC50) of 1500 nM.
